Assay results taken from patent US12570675B2, “Boronic acid compounds” (LG CHEM, LTD., priority 2020, dated 2026).

Chains of the proteins cited; added tags and fusions are not shown. Residues count along the entry.
UniProt P28074, 60-263 limits assumed: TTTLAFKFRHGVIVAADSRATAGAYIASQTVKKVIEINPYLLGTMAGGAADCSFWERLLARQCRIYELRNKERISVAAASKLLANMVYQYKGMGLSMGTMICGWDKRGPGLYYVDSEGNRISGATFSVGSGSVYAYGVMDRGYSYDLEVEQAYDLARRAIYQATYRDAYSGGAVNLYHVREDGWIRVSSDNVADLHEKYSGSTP

Target: Proteasome chymotrypsin-like activity (S26 protein from RPMI8226 cells) (Homo sapiens, UniProt P28074)
Format: biochemical
Conditions: S26 protein from RPMI8226 cell extract 2 ug/well, substrate 20 uM, 37° C., 90 minutes; read-out: Proteasome chymotrypsin-like activity inhibition IC50
Experimental: The abilities to inhibit the proteasome activity of the compounds described in the Examples of the present invention and boronic acid drugs were evaluated as follows.
RPMI8226 cells, which is a multiple myeloma cell line, were cultured and then separated by a centrifuge, and washed twice with phosphate buffered saline (PBS). 20 mM of a tris-HCl (pH 8.0) buffer solution was added to the washed cells, and the cells were disrupted by a homogenizer and centrifuged to obtain S26 protein from the supernatant. Suc-Leu-Leu-Val-Tyr-AMC, for a fluorogenic substrate for the chymotrypsin-like activity of the proteasome, and Z-Leu-Leu-Glu-AMC, for a fluorogenic substrate for the caspase-like activity, were purchased from Calbiochem, EMD Millipore and used. […] The fluorescence of the fluorogenic substrate was measured by FlexStation II Fluorometer (Molecular Devices). The fluorescence inhibited by the compound diluted at each concentration was measured as the relative percentage value for the amount obtained from the treatment only with the S26 protein and the fluorogenic substrate. […]

`CC(C)C[C@H](NC(=O)CNC(=O)c1cc(Cl)ccc1Cl)B(O)O` [ixazomib] showed an IC50 of 4 nM.
